Source: ChEMBL document CHEMBL4813935, “Cyclotides from Brazilian Palicourea sessilis and Their Effects on Human Lymphocytes” (J Nat Prod, 2021)

Assay: Hemolytic activity against human RBC assessed as concentration required to cause 50% hemolysis measured after 1 hr
Assay type: cell-based, Erythrocyte
Conditions: red blood cells (erythrocytes), read-out: CC50
Procedure, shortened: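 Donor human red blood cells were washed in PBS and diluted to 0.25% (v/v). Peptides were serially diluted from water to eight concentrations, 0.187–24 μM. Incubation was 1 h at 37 °C; PBS served as negative control and 1% Triton-X as positive control. Supernatant absorbance was read at 415 nm. CC50 (50% lysis) from log(agonist) vs response (variable slope) fit; n = 3.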

In the case of `CC[C@H](C)[C@H](NC(=O)CN)C(=O)NCC(=O)N[C@@H](C)C(=O)N[C@H](C(=O)N[C@@H](CC(C)C)C(=O)N[C@@H](CCCCN)C(=O)N[C@H](C(=O)N[C@@H](CC(C)C)C(=O)N[C@H](C(=O)N[C@H](C(=O)NCC(=O)N[C@@H](CC(C)C)C(=O)N1CCC[C@H]1C(=O)N[C@@H](C)C(=O)N[C@@H](CC(C)C)C(=O)N[C@H](C(=O)N[C@@H](CO)C(=O)N[C@@H](Cc1c[nH]c2ccccc12)C(=O)N[C@H](C(=O)N[C@@H](CCCCN)C(=O)N[C@@H](CCCNC(=N)N)C(=O)N[C@@H](CCCCN)C(=O)N[C@@H](CCCNC(=N)N)C(=O)N[C@@H](CCC(N)=O)C(=O)N[C@@H](CCC(N)=O)C(N)=O)[C@@H](C)CC)[C@@H](C)CC)[C@@H](C)O)[C@@H](C)O)C(C)C)C(C)C` [MELITTIN], the HC50 at 1 h is reported as 200 nM.
